The source of these data is publication PMC10539439 (Pharmacological Reports, 2023).

Series [1] is described as follows: Distribution in brain after ip administration. To be noted: rat brain, Guanabenz 0.3 mg/kg, 4-OH-Guanabenz 0.4 mg/kg.
Series [2] addresses T1, TAAR1 (Homo sapiens, UniProt Q96RJ0).
T1 sequence (Q96RJ0 1-339): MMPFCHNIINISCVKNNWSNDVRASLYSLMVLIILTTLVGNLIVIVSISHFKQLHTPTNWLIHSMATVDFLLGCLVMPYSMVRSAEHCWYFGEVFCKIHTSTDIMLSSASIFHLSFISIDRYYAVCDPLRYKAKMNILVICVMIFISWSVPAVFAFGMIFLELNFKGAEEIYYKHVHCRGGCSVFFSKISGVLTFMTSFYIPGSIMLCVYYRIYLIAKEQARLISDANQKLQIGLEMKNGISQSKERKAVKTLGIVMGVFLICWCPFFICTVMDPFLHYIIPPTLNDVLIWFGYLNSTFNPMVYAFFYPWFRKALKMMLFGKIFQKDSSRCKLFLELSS
Description: Intrinsic activity, Hit Hunter cAMP assay. The series is classed as cell-based. To be noted: Agonist, Conc 0.228624. A general note: cAMP levels reflect the balance of adenylyl cyclase and phosphodiesterase activity.

For the compound `N=C(N)N/N=C/c1c(Cl)cccc1Cl` [Guanabenz], the AUC0→t in series [1] is recorded as 25,179 ng ⋅ min/g.
As for `NCCc1ccc(O)cc1` [p-Tyramine], in series [2], the “Raw Value” was 1840.
